Laboratory results published in patent publication US11098057B2, “9,10,11,12-tetrahydro-8H-[1,4]diazepino[5′,6′:4,5]thieno[3,2-F]quinolin-8-one compounds and uses thereof” (Celgene CAR LLC, priority 2017, dated 2021).

Protein sequences, listed by entry. Tags and fused reporters are not part of them.
UniProt P49137, whole entry: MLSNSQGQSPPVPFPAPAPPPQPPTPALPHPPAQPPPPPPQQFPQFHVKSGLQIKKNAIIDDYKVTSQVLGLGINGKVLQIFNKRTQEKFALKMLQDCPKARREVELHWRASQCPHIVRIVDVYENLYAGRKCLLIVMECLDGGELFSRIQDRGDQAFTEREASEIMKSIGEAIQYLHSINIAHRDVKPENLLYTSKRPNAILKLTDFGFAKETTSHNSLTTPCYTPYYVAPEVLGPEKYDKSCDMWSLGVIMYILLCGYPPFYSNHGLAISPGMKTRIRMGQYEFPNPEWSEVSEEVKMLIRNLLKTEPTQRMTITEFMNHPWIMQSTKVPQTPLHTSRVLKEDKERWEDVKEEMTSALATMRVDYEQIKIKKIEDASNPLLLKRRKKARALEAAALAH

Molecular target: MK2 protein (Homo sapiens, UniProt P49137)
Settings: 10-fold excess of compound to protein, 60 minutes at room temperature, MALDI
Description: (§1) The procedure for this assay follows.
as §1

With `CCOCc1cnc(Cl)nc1Oc1ccc2c(ccc3sc4c(c32)NC[C@H](C)NC4=O)n1` [Compound I-82] the “Mass Modification” value was “F (mass modification of 31-69%)”.
